These are literature values, as cited in US20260109944A1, “Culture Method for Organoids” (Koninklijke Nederlandse Akademie Van Wetenschappen, priority 2014, published 2026).

The series addresses T1, ALK5 (TGF-βR1) (Homo sapiens, UniProt P36897).
T1 sequence (P36897 34-503): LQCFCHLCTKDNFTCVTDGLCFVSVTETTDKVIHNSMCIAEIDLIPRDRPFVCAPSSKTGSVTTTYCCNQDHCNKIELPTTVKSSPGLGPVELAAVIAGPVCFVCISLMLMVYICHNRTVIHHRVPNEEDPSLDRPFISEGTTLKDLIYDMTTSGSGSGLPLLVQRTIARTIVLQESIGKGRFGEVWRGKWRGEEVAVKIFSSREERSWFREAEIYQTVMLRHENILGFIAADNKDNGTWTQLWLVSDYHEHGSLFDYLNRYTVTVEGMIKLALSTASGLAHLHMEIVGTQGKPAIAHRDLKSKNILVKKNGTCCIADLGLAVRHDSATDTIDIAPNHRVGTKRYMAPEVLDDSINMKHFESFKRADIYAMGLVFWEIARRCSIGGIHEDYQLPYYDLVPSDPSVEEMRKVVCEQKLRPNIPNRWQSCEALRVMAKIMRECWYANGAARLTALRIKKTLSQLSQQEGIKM
The conditions noted are these: at high concentrations (approximate 10 μM or more); cited from earlier work.

Take `C[S+]([O-])c1ccc(-c2nc(-c3ccc(F)cc3)c(-c3ccncc3)[nH]2)cc1` (stereo not shown) [SB-203580]: the “inhibition of ALK5” value is “thought to inhibit ALK5”.
